Test results published in patent US8580749B2, “Peptide-coated cell localization to diseased or damaged tissues and methods related thereto” (Cell Targeting, Inc., priority 2009, dated 2013).

System: human mesenchymal stem cells (MSCs)
Conditions: higher concentrations
Description: MSCs were grown in Dulbecco's Modified Eagle's Medium (DMEM) and fetal bovine serum (FBS) (10%) supplemented with fibroblast growth factor-2 (FGF-2) (5 ng/ml) for 1 week. They were then trypsinized, washed with DMEM, aliquoted at 1 million cells/vial and resuspended in Tyrodes' balanced salt solution. […] was later used throughout the coating procedure. […] Cell solutions were centrifuged (200 RCF, 5 min, r.t.), washed twice with cold Tyrodes solution, then incubated for 20 minutes with 20 μg/ml streptavidin-PE (S866 Invitrogen), washed with Tyrodes solution, fixed with formalin, and then assessed using flow cytometry and epifluorescent microscopy.

Question: Which “appearance of cells after coating” value does the source give for PA-SK(Biotin)NSCARSKNKDC [PA-BioCAR] here?
Answer: looked perturbed at higher concentrations
